# Experimental data from patent publication US5585353A, “Antibiotic peptides containing D-amino acids” (The Rockefeller University, priority 1994, dated 1996).
# Legend:
# Type in all cases: cell-based
# S. aureus Cowan 1 = assay: inhibition zone assay, lethal concentration; conditions: S. aureus Cowan 1, thin agarose plates
# Procedure: (§1) Thin agar or agarose plates (8.5 cm diameter) were prepared with 6 ml of rich medium containing 100 ug/ml of streptomycin and 2×10^5 viable cells of a test organism resistant to streptomycin. Wells of 3.5 mm diameter were punched in the plates and 3 ul of serially diluted samples were placed in the wells. The diameters of the zones of inhibition around the wells were measured after overnight incubation at 30° or 37° C. For each peptide the squares of the zone diameters were plotted against the logarithm of the concentration, and from the slopes and intercepts the lethal concentrations were calculated as described by Hultmark (1983) EMBO J. 2, 571-76 or Hultmark et al (1982) Eur. J. Biochem. 127 207-217 each of which being incorporated herein by reference.
# (§2) Lethal Concentrations calculated from inhibition zones on thin agarose
# aeruginosa; Bs11: B. subtilis; +ME: plates prepared with medium E; Staph:
# (§3) S. aureus Cowan 1; Strep: S. pyogenes; SRC: Sheep red cells.; *all amino
# E. coli D21 = assay: inhibition zone assay, lethal concentration; conditions: E. coli D21, thin agarose plates
# Procedure: as §1, §2
# (§4) plates seeded with the respective organisms. D21: E. coli; OT97: P.
# Sheep red cells = assay: inhibition zone assay, lethal concentration on sheep red cells; conditions: thin agarose plates
# Procedure: as §1, §2, §3
# S. pyogenes = assay: inhibition zone assay, lethal concentration; conditions: thin agarose plates
# Procedure: as §1, §2, §3
# P. aeruginosa OT97 = assay: inhibition zone assay, lethal concentration; conditions: P. aeruginosa OT97, thin agarose plates
# Procedure: as §1, §2, §4
# (§5) aeruginosa; Bs11: B. subtilis; +ME: plates prepared with medium E; Staph: […]
# B. subtilis Bs11 = assay: inhibition zone assay, lethal concentration
# Procedure: as §1, §2, §5
smiles,measurement,setting,value
CC[C@@H](C)[C@@H](NC(=O)CN)C(=O)NCC(=O)N[C@H](C)C(=O)N[C@@H](C(=O)N[C@H](CC(C)C)C(=O)N[C@H](CCCCN)C(=O)N[C@@H](C(=O)N[C@H](CC(C)C)C(=O)N[C@@H](C(=O)N[C@@H](C(=O)NCC(=O)N[C@H](CC(C)C)C(=O)N1CCC[C@@H]1C(=O)N[C@H](C)C(=O)N[C@H](CC(C)C)C(=O)N[C@@H](C(=O)N[C@H](CO)C(=O)N[C@H](Cc1c[nH]c2ccccc12)C(=O)N[C@@H](C(=O)N[C@H](CCCCN)C(=O)N[C@H](CCCNC(=N)N)C(=O)N[C@H](CCCCN)C(=O)N[C@H](CCCNC(=N)N)C(=O)N[C@H](CCC(N)=O)C(=O)N[C@H](CCC(N)=O)C(N)=O)[C@H](C)CC)[C@H](C)CC)[C@H](C)O)[C@H](C)O)C(C)C)C(C)C [Compound 11],Lethal Concentrations Staph,S. aureus Cowan 1,0.1 µM
same,Lethal Concentrations D21,E. coli D21,1 µM
same,Lethal Concentrations SRC,Sheep red cells,2 to 3 µM
same,Lethal Concentrations Strep,S. pyogenes,0.9 µM
same,Lethal Concentrations OT97,P. aeruginosa OT97,2 µM
same,Lethal Concentrations Bs11 +ME,"B. subtilis Bs11; B. subtilis Bs11, plates prepared with medium E",0.3 µM
same,Lethal Concentrations Bs11,"B. subtilis Bs11; B. subtilis Bs11, thin agarose plates",0.4 µM
